Results on 14 molecules are retold here after patent publication US7338958B2, “Sulfoximine-substituted pyrimidines as CDK-and/or VEGF inhibitors, their production and use as pharmaceutical agents” (Schering AG, priority 2003, dated 2008).

Amino acid sequences for entries named in this document (tags omitted). Residues count along the entry.
UniProt P35968, 20-1356: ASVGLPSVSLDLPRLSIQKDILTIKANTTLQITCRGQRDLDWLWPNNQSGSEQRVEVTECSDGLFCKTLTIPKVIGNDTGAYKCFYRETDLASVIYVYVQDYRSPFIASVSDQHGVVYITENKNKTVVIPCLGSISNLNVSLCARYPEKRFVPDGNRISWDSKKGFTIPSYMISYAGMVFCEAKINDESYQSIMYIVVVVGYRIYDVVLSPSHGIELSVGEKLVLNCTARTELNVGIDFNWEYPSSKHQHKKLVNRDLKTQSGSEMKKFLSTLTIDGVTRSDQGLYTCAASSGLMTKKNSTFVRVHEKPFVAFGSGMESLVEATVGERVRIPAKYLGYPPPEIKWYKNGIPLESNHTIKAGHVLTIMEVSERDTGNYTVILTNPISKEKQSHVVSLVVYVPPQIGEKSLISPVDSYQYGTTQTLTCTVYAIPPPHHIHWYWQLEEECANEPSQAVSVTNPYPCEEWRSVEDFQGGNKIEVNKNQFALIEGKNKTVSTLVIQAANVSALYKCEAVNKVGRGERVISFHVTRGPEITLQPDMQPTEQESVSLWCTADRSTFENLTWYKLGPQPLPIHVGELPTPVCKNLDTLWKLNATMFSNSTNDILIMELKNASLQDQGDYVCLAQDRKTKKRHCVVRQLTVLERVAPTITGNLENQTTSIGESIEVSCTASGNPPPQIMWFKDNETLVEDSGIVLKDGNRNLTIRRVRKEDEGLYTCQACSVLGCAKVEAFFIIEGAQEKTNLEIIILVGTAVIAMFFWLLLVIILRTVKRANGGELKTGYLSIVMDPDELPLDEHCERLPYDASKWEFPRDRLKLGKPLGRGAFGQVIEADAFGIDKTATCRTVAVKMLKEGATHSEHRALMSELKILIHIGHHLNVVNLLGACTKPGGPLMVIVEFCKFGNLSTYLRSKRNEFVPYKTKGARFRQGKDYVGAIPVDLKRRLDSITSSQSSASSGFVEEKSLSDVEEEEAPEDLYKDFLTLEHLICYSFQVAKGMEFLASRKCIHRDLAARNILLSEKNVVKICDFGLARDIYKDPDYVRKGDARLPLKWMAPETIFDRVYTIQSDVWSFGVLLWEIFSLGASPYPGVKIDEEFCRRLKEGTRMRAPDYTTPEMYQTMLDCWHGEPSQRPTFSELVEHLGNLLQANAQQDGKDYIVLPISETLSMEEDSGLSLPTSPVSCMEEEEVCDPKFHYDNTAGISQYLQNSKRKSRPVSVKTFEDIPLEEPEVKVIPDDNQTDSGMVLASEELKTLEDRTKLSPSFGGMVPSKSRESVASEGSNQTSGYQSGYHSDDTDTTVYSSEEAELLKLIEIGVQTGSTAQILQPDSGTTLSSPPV
UniProt P06493, whole entry: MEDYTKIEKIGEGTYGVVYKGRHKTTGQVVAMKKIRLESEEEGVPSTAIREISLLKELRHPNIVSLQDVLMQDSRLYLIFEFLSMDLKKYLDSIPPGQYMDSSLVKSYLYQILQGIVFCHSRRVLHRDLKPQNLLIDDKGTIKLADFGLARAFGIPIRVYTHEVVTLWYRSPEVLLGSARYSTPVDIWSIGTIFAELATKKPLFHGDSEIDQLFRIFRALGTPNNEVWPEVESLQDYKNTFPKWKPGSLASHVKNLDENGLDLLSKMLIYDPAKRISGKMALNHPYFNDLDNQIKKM

pIC50: −log10 of the molar value.

Experiment [1] deals with T1, VEGF receptor tyrosine kinase-2 (Homo sapiens, UniProt P35968).
T1 construct: GST; made in house; host or cells: baculovirus-infected insect cells (Sf9)
The experiment is described as follows: VEGF Receptor-2 Kinase Assay. It is filed as biochemical. Particulars: poly-(Glu4Tyr) substrate, 33P-ATP, 10 minutes at 22° C.; read-out: VEGF-R2 IC50.

A further experiment concerns the target T2, CDK2/CycE (Homo sapiens, UniProt P24941).
T2 construct: GST; purchased ProQinase GmbH, Freiburg; host or cells: baculovirus-infected insect cells (Sf9)
The experiment is described as follows: CDK2/CycE Kinase Assay. It is filed as biochemical. Particulars: histone IIIS substrate, 33P-ATP, 15 minutes at 22° C.

For another experiment, the target named is T3, CDK1/CycB (Homo sapiens, UniProt P06493).
T3 construct: GST; purchased ProQinase GmbH, Freiburg; host or cells: baculovirus-infected insect cells (Sf9)
Briefly: CDK1/CycB Kinase Assay. It is filed as biochemical. Particulars: histone IIIS substrate, 33P-ATP, 15 minutes at 22° C.

Experiment [2] deals with HCT 116, human colon cancer cells. The experiment is described as follows: Proliferation assay, HCT116. It is filed as cell-based. Particulars: HCT-116, 96 h, 4 days incubation, crystal violet. From the text: Cultivated human tumor cells (MCF7, hormone-independent human breast cancer cells, related to ATCC HTB22; NCI-H460, human non-small-cell lung cancer cells, ATCC HTB-177, HCT 116, human colon cancer cells, ATCC CCL-247; DU 145, hormone-independent human prostate cancer cells, ATCC HTB-81; MaTu-MDR, hormone-independent, multiple pharmaceutical agent-resistant human breast cancer cells, EPO-GmbH, Berlin) were flattened out at a density of about 5000 cells/measuring point, depending on the growth rate of the respective cells, in a 96-well multititer plate in 200 μl of the corresponding growth medium. […] The cell proliferation was determined by coloring the cells with crystal violet: the cells were fixed by adding 20 μl/measuring point of an 11% glutaric aldehyde solution for 15 minutes at room temperature. […] The extinction was determined by photometry at a wavelength of 595 nm. The change of cell growth, in percent, was calculated by normalization of the measured values to the extinction values of the zero-point plate (=0%) and the extinction of the untreated (0 μm) cells (=100%).

Experiment [3] deals with NCI-H460, human non-small-cell lung cancer cells. The experiment is described as follows: Proliferation assay, H460. The settings on record: NCI-H460, 96 h, 4 days incubation, crystal violet. It is filed as cell-based.

For the molecule `C[C@@H](Nc1nc(Nc2ccc(S(=N)(=O)C3CC3)cc2)ncc1Br)C(C)(C)O` (mixture of isomers) [Example 1.6, (RS)-S-[4-({5-bromo-4-[(R)-(2-hydroxy-1,2-dimethylpropyl)amino]pyrimidin-2-yl}amino)phenyl]-S-cyclopropylsulfoximide], the pIC50 in experiment [1] was 7.54.
Turning to `C[C@@H](Nc1nc(Nc2ccc(S(=N)(=O)C3CCCC3)cc2)ncc1Br)C(C)(C)O` (mixture of isomers) [Example 1.11, (RS)-S-[4-({5-bromo-4-[(R)-(2-hydroxy-1,2-dimethylpropyl)amino]pyrimidin-2-yl}amino)phenyl]-S-cyclopentylsulfoximide], the pIC50 in experiment [1] is 7.08.
At CDK2/CycE, `C[C@@H](O)[C@@H](C)Oc1nc(Nc2ccc(S(=N)(=O)CCO)cc2)ncc1Br` (mixture of isomers) [Example 1.21, (RS)-S-[4-({5-bromo-4-[(1R,2R)-2-hydroxy-1-methyl-propoxy]pyrimidin-2-yl}amino)phenyl]-S-(2-hydroxyethyl)sulfoximide] had a pIC50 of 8.22.
With `COc1cc(Nc2ncc(Br)c(N[C@H](C)[C@@H](C)O)n2)ccc1S(C)(=N)=O` (mixture of isomers) [Example 1.26, (RS)-S-[4-({5-bromo-4-[(1R,2R)-(2-hydroxy-1-methylpropyl)amino]pyrimidin-2-yl}amino)-2-methoxyphenyl]-S-methyl sulfoximide], the pIC50 against CDK1/CycB is 8.70.
On CDK2/CycE, `Cc1cc(Nc2ncc(Br)c(N[C@H](C)C(C)(C)O)n2)ccc1S(C)(=N)=O` (mixture of isomers) [Example 1.57, (RS)-S-[4-({5-bromo-4-[(R)-(2-hydroxy-1,2-dimethylpropyl)amino]pyrimidin-2-yl}amino)-2-methylphenyl]-S-methyl sulfoximide] gave a pIC50 of 8.40.
As to `CC(C)Nc1nc(Nc2ccc(S(C)(=N)=O)cc2)ncc1Br` (racemic) [Example 2.0, (RS)-S-(4-{[5-bromo-4-(isopropylamino)pyrimidin-2-yl]amino}phenyl)-S-methyl sulfoximide], the negative-log IC50 (pIC50) was 7.80 at CDK2/CycE and 7.15 in experiment [1].
Molecule `CS(=N)(=O)c1ccc(Nc2ncc(Br)c(Nc3ccccc3)n2)cc1` (racemic) [Example 2.3, (RS)-S-(4-{[5-bromo-4-(phenylamino)pyrimidin-2-yl]amino}phenyl)-S-methyl sulfoximide] had a pIC50 against CDK2/CycE of 7.48.
Regarding `CC(O)CSc1nc(Nc2ccc(S(C)(=N)=O)cc2)ncc1Br` (racemic) [Example 3.4, (RS)-S-[4-({5-bromo-4-[(RS)-(2-hydroxy-propyl)sulfanyl]pyrimidin-2-yl}amino)phenyl]-S-methyl sulfoximide], the pIC50 is 7.39 on CDK2/CycE and 6.60 in experiment [1].
For `CCC(Sc1nc(Nc2ccc(S(C)(=N)=O)cc2)ncc1Br)C(C)O` (racemic) [Example 3.6, (RS)-S-[4-({5-bromo-4-[(RS,RS)-(1-ethyl-2-hydroxypropyl)sulfanyl]pyrimidin-2-yl}amino)phenyl]-S-methyl sulfoximide], the pIC50 in experiment [1] was 6.70.
On to `CC(Sc1nc(Nc2ccc(S(C)(=N)=O)cc2)ncc1Br)C(C)(C)O` (racemic) [Example 3.7, (RS)-S-[4-({5-bromo-4-[(RS)-(2-hydroxy-1,2-dimethylpropyl)sulfanyl]pyrimidin-2-yl}amino)phenyl]-S-methyl sulfoximide], for which the pIC50 at CDK2/CycE is 7.96; in experiment [1] it was 6.96.
On to `CCC(Sc1nc(Nc2ccc(S(C)(=N)=O)cc2)ncc1Br)C(C)(C)O` (racemic) [Example 3.8, (RS)-S-[4-({5-bromo-4-[(RS)-(1-ethyl-2-hydroxy-2-methylpropyl)sulfanyl]pyrimidin-2-yl}amino)phenyl]-S-methyl sulfoximide], for which the negative logarithm of the IC50 (pIC50) against CDK1/CycB was 7.04.
As for `C[C@@H](O)[C@@H](C)Nc1nc(Nc2ccc(S(C)(=N)=O)cc2)ncc1Br` (single isomer, unassigned) [Example 1.2], the pIC50 is 7.70 in experiment [2] and 7.32 in experiment [1].
`COc1cc(Nc2ncc(Br)c(N[C@H](C)[C@@H](C)O)n2)ccc1S(C)(=N)=O` (single isomer, unassigned) [Example 1.25]: the negative-log IC50 (pIC50) at CDK1/CycB is 8.70.
The molecule `COc1cc(Nc2ncc(Br)c(N[C@H](C)[C@@H](C)O)n2)ccc1S(C)(=N)=O` (single isomer, unassigned) [Example 1.26] gave a pIC50 in experiment [3] of 7.52.
